The assay deals with T1, human α1b adrenergic receptor (Homo sapiens, UniProt P35368).
T1 construct: The entire coding region of α1b (1563 bp); expressed in transfected cells
The assay can be described thus: Radioligand binding ([3H]prazosin) at cloned human α1b adrenergic receptor. The conditions noted are these: LM(tk-) cell membranes, read-out: Binding affinities (pKi) α1b (converted). The protocol:
The binding of a test compound to a receptor of interest was generally evaluated by competitve binding assays using membrane preparations derived from cells which expressed the receptor. First, conditions were determined which allowed measurement of the specific binding of a compound known to bind to the receptor. Then, the binding of the known compound to the receptor in membrane preparations was evaluated in the presence of several different concentrations of the test compound.
The binding properties of compounds at the different human receptors were determined in vitro using cultured cell lines that selectively express the receptor of interest. These cell lines were prepared by transfecting the cloned cDNA or cloned genomic DNA or constructs containing both genomic DNA and cDNA encoding the human receptors as described below.
α1b Human Adrenergic Receptor: The entire coding region of α1b (1563 bp), including 200 base pairs of 5′ untranslated sequence (5′ UT) and 600 bp of 3′ untranslated sequence (3′ UT), was cloned into the EcoRI site of pCEXV-3 eukaryotic expression vector. […]
Radioligand Binding Assays for α1 Human Adrenergic Receptors: Transfected cells from culture flasks were scraped into 5 ml of 5 mM Tris-HCl, 5 mM EDTA, pH 7.5, and lysed by sonication. […] Nonspecific binding was determined in the presence of 10 μM phentolamine. […]

By UniProt entry, the sequences of proteins in these tests, tags left out.
UniProt P35368, whole entry: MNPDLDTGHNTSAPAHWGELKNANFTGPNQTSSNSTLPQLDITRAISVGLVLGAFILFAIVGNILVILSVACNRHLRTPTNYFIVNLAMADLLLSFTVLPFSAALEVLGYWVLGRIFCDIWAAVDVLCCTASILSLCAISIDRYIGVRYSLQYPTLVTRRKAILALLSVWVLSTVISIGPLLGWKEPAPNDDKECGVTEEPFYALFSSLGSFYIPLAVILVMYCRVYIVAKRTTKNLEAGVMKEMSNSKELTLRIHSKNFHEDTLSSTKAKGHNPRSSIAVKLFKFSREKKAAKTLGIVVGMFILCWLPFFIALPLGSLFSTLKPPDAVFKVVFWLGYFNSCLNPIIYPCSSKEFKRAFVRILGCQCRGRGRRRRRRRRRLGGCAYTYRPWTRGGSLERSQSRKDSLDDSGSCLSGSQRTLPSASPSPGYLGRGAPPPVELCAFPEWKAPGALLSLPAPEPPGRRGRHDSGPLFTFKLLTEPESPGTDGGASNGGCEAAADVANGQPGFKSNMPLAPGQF

The structures appear in SMILES notation.

For the molecule `C[C@H](CN1CCN(c2cc(F)c(F)cc2F)CC1)N1C(=O)CC2(CCCC2)CC1=O` [Compound 9, 8-{(1R)-2-[4-(2,4,5-Trifluorophenyl)piperazin-1-yl]-1-methylethyl}-8-azaspiro[4.5]decane-7,9-dione], the Ki was 158 nM.

The values are drawn from US6706716B2, “Compounds specific for the human α1d adrenergic receptor and uses thereof” (Synaptic Pharmaceutical Corporation, priority 1998, dated 2004).
